{"source": "patent US20150136150A1", "about": "“DURABLE SKIN MARKING COMPOSITIONS” (OP-MARKS, INC., priority 2011, published 2015)", "origin": "cited, not measured here", "tested_on": "rat", "settings": "oral dose administered to rat; cited from earlier work", "data": [{"smiles": "CCCOCC(C)O", "note": "(stereo not shown) [PGPE (Arcosolv)]", "values": [{"measurement": "TOX (toxicity, LD50)", "value": 2504, "unit": "mg/kg"}]}]}
